Measurements as given in US20130158072A1, “KAPPA OPIOID RECEPTOR BINDING LIGANDS” (Research Triangle Institute, priority 2010, published 2013).

By UniProt entry, the sequences of proteins in these tests, tags left out. Where a name states a change or a piece, a line headed by the entry shows the natural chain unless it says otherwise.
UniProt P41145: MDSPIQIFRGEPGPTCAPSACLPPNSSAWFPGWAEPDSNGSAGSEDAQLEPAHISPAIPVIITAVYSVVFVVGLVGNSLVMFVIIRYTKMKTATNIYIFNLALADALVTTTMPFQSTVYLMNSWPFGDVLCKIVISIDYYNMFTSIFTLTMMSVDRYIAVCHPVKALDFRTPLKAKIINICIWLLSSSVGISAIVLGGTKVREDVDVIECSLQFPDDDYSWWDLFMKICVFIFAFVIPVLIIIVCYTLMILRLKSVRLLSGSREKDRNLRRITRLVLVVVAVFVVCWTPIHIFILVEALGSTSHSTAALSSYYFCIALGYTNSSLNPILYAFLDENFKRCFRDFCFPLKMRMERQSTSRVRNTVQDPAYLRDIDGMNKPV
UniProt P35372, whole entry: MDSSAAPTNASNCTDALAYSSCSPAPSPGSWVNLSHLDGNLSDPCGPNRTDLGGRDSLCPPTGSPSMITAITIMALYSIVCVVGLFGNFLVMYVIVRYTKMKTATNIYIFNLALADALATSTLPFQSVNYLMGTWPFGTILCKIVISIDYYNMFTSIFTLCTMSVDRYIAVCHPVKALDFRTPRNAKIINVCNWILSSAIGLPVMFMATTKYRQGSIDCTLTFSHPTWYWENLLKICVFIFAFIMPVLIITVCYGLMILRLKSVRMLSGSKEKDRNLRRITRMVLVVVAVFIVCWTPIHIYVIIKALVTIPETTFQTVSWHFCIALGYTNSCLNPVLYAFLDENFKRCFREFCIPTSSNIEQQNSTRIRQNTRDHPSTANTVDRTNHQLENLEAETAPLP

Assays:
[1] = biological target: T1, cloned human κ-opioid receptor (Homo sapiens, UniProt P41145); experiment: Inhibition of U69,593-stimulated [35S]GTPγS binding
[2] = biological target: T1, cloned human κ-opioid receptor; experiment: Intrinsic activity in the [35S]GTPγS binding assay; format: biochemical; parameters: expressed in transfected cells; host or cells: CHO cells; settings: at 10 μM
[3] = biological target: T2, cloned human μ-opioid receptor (Homo sapiens, UniProt P35372); experiment: Intrinsic activity in the [35S]GTPγS binding assay; format: biochemical; settings: at 10 μM
T2 construct: expressed in transfected cells; host or cells: CHO cells

[4] = biological target: T3, cloned human δ-opioid receptor (Homo sapiens, UniProt P41143); experiment: Intrinsic activity in the [35S]GTPγS binding assay; format: biochemical; settings: at 10 μM
T3 construct: expressed in transfected cells; host or cells: CHO cells

Oc1ccc2c3c1O[C@H]1c4[nH]c5c(c4C[C@@]4(O)[C@@H](C2)N(CC2CC2)CC[C@]314)C[C@@]1(O)[C@H]2Cc3ccc(O)c4c3[C@@]1(CCN2CC1CC1)[C@H]5O4 [Compound 1, nor-BNI, reference compound]
κ, U69,593 Ke ([1]; antagonism of U69,593-stimulated [35S]GTPγS binding, CHO cells, means ± SE, at least three experiments): 0.05 ± 0.02 nM
δ/κ ([1]; ratio of Ke values, κ selectivity relative to δ): 580
μ/κ ([1]; ratio of Ke values, κ selectivity relative to μ): 520
intrinsic activity at the κ opioid receptor [2]: none of the compounds displayed measurable intrinsic activity
intrinsic activity at the μ opioid receptor [3]: none of the compounds displayed measurable intrinsic activity
intrinsic activity at the δ opioid receptor [4]: none of the compounds displayed measurable intrinsic activity
